Our source for the IC50 values is US12409171B2, “Pharmaceutically active pyrazolo-pyridone modulators of DCN1/2-mediated cullin neddylation” (UNIVERSITY OF KENTUCKY RESEARCH FOUNDATION, priority 2019, dated 2025).

Chains of the proteins cited; added tags and fusions are not shown.
UniProt Q96GG9, whole entry: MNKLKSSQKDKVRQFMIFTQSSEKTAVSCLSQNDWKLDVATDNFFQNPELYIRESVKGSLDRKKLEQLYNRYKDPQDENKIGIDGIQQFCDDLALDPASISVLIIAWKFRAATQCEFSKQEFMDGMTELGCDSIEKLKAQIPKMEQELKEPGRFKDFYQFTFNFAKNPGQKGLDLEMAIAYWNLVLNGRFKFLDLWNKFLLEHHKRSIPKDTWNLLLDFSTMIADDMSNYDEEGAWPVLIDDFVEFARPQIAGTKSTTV

The target in this test is DCN1 (Homo sapiens (Human), UniProt Q96GG9). Briefly: TR-FRET binding assay (biotin-DCN1 / Ac-UBE2M12-AlexaFluor488). To be noted: diastereomer on branched alkyl group. On the technique in general: In TR-FRET formats the signal depends on donor and acceptor labels being close together.
[1] abbreviates: read-out: IC50 (μM) (TR-FRET), TLC-down diastereomer, TLC-down.

Where two headings read alike, the source gives them in different places.

On to `CCC(C)n1nc(C)c2c1NC(=O)[C@@H](NC(=O)c1cccc(C)c1)[C@H]2c1ccc(F)cc1` (single isomer, unassigned), for which the IC50 runs as follows: under setting [1], 0.6 µM; (read-out: IC50 (μM) (TR-FRET), TLC-up diastereomer, TLC-up) 0.7 µM.

`CCC(C)n1nc(C)c2c1N(CC)C(=O)[C@@H](NC(=O)c1cccc(C)c1)[C@H]2c1ccc(F)cc1` (single isomer, unassigned): the IC50 under setting [1] stood at 0.5 µM.

For orientation: IC50 means the concentration that inhibits the measured activity by half.
